Laboratory results from US9949917B2, “Cosmetic composition comprising a combination of a sugar fatty acid ester with a plant extract of Waltheria indica or Pisum sativum for skin whitening” (Cognis IP Management GmbH, priority 2006, dated 2018).

Assays:
B16 melanocytes = assay: Amount of cellular proteins in parallel B16 cultures (harmlessness at the used dose)
[1] = system: Melanocytes (B16 cell line); assay: Melanogenesis inhibition assay: number of viable cells by level of cellular proteins (Bradford's method)

## Sucrose laurate [Sucrose laurate of example 5]
B16 melanocytes; at the concentrations of Tables 7bis and 8bis
  toxic effects judged by amount of cellular proteins (in words): do not show any toxic effects
B16 melanocytes; sucrose laurate 0.005% (w/v) alone
  Amount of cellular proteins in %/control: 87 +/− 6 %/control
B16 melanocytes; sucrose laurate 0.01% (w/v) alone
  Amount of cellular proteins in %/control: 86 +/− 7 %/control
[1]; at the doses of Tables 1 and 4
  effect on the rate of viable B16 melanocytes (in words): have not modified
[1]; sucrose laurate 0.0003% (w/v) alone, 3 assays
  Rate of cellular proteins in %/control: 102 +/− 4 %/control
[1]; sucrose laurate 0.001% (w/v) alone, 2 assays (Table 4)
  Rate of cellular proteins in %/control: 90 +/− 9 %/control
[1]; sucrose laurate 0.001% (w/v) alone, 3 assays (Table 1)
  Rate of cellular proteins in %/control: 99 +/− 3 %/control
